According to ChEMBL document CHEMBL2016464, “Identification of Inhibitors of NOD1-Induced Nuclear Factor-κB Activation” (ACS Med Chem Lett, 2011):

Legend:
HEK-293T [1] = format: cell-based; settings: Homo sapiens
HEK-293T [2] = format: cell-based; settings: Homo sapiens; remark: listed apart in the source

**Q.** `Cc1ccc(S(=O)(=O)n2c(N)nc3ccccc32)cc1` was tested. Which Ratio IC50 (HEK-293T [1]) did it give?
**A.** The Ratio IC50 was greater than 36.

**Q.** What about the Ratio IC50 (HEK-293T [2]) of the same compound?
**A.** The Ratio IC50 was greater than 36.
